# Test results published in EP0795549A1, “Bis-aryloxy(amino)-triazinyl-oxy(amino)aryl derivatives, their preparation and their use as antiviral agents” (American Cyanamid Company, priority 1996, dated 1997).
# Key:
# [1] = tested on: human foreskin fibroblasts (HF); assay: effect on cells: appearance of fixed, crystal violet-stained monolayer (HF); assay type: cell-based; set-up: key: N, no effect on the appearance of the alcohol-fixed and crystal violet-stained cell monolayer at the indicated compound concentration.; L, lightening of the intensity of staining (compared to controls) of the alcohol-fixed and crystal violet-stained cell monolayer at the indicated compound concentration but not at half that concentration; conditions: at 75 µg/ml
# vero cells = assay: effect on cells: appearance of fixed, crystal violet-stained monolayer (vero); assay type: cell-based, African green monkey; set-up: key: N, no effect on the appearance of the alcohol-fixed and crystal violet-stained cell monolayer at the indicated compound concentration.; L, lightening of the intensity of staining (compared to controls) of the alcohol-fixed and crystal violet-stained cell monolayer at the indicated compound concentration but not at half that concentration; conditions: at 75 µg/ml
substance,measurement,setting,value
"4',4-Bis-{4,6-bis-[3-(bis-carbamoylmethyl-1-sulfamoyl)-phenylamino]-[1,3,5]triazin-2-ylamino}-biphenyl-2,2'-dicarboxylic acid, disodium salt [Example 44]",Effect on cells @ µg/ml indicated HF,[1],L@75
same,Effect on cells @ µg/ml indicated Vero,vero cells,L@75
